# From patent US20180344768A1, “NK CELL-BASED THERAPY” (Onkimmune Limited, priority 2016, published 2018)
# Tested on: MM cell lines RPMI8226 and MM1.S
# Conditions: low dose, associated with DR5 upregulation, data not shown
smiles,measurement,value
CC(C)C[C@H](NC(=O)[C@H](Cc1ccccc1)NC(=O)c1cnccn1)B(O)O [Bortezomib],induction of apoptosis,minor induction of apoptosis
